From ChEMBL document CHEMBL1148282, “A novel series of piperidin-4-yl-1,3-dihydroindol-2-ones as agonist and antagonist ligands at the nociceptin receptor” (2004) come the findings set out here.

The assay can be described thus: [Agonist concentration]/(dose ratio - 1) was determined.

Structures are written as SMILES.

Turning to `O=C1Cc2ccccc2N1C1CCN(CC2CCCCCCC2)CC1`, the Ke came out at 15.3 nM. Turning to `CC1(C)C2CCC(CN3CCC(N4C(=O)Cc5ccccc54)CC3)C1C2` (configuration not stated), the Ke came to 67.1 nM.
